Target: GST-Aurora A (Homo sapiens, UniProt O14965)
Experiment: Aurora A kinase biochemical mobility shift assay (Caliper LC3000 / Desktop Profiler)
Details: read-out: IC50 (AK); AK A (Aurora kinase A) inhibition
Description: The Aurora assays described here are performed on two Caliper Life Sciences systems: the LC3000 and the Desktop Profiler. The RON kinase assays are performed on the Desktop Profiler only. These provide data on enzyme activity via measurement of the relative amounts of phosphorylated or unphosphorylated fluorescently labelled substrate peptide at the end of an enzymatic reaction. These different states of peptide are resolved by applying a potential difference across the sample. The presence of the charged phosphate group on the product (as opposed to the substrate) causes a different peptide mobility between the two peptides. This is visualized by excitation of the fluorescent label on the substrate and product peptides and represented as peaks within the analysis software. […]
The plate is read on a Caliper LC3000 in an Off-Chip mobility shift assay format, using the following parameters for a 12-sipper chip: screening pressure −1.8 psi, upstream voltage −2700, downstream voltage −1000. […] The percent conversion can be plotted against concentration of inhibitor to produce a sigmoidal dose response curve, from which an IC50 can be calculated using XLFit for Microsoft Excel. […]
Reading of the plate in the Profiler is identical to the LC3000, and the ratio between substrate and product peaks provides the activity of the enzyme in that well. […]

Protein sequences, listed by entry. Tags and fused reporters are not part of them.
UniProt O14965, whole entry: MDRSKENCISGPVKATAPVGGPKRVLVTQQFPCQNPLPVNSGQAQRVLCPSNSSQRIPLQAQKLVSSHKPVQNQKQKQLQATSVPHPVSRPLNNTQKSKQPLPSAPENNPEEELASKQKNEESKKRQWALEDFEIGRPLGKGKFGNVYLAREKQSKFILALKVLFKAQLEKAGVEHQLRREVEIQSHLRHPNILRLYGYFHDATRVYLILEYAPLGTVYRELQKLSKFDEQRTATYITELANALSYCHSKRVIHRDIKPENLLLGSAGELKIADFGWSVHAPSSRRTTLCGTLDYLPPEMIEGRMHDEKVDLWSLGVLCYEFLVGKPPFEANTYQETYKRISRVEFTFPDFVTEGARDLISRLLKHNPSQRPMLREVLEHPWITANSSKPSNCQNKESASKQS

| SMILES | IC50 |
| --- | --- |
| Cn1ccc(N2Cc3c(Nc4ccc(NC(=O)c5ccccc5)cc4)ccnc3NC2=O)n1 | 10 to 100 nM |
| Cn1ccc(N2Cc3c(Nc4ccc(NC(=O)c5ccc(F)cc5C(F)(F)F)cc4)ccnc3NC2=O)n1 | 10 to 100 nM |
